Experimental data from PubChem BioAssay AID1847 (The Scripps Research Institute Molecular Screening Center, 2009).
Only a part is listed here, and it is no random draw. The source made the active and inactive calls.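 The calls were made as follows: active = inhibition above the mean inhibition of all tested sample wells plus 3 SD (cut at about 10% in these data); inactive = the rest.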

Sequences of proteins named here, by UniProt entry; tags and fusion partners are left off.
UniProt P08659, whole entry, looked up: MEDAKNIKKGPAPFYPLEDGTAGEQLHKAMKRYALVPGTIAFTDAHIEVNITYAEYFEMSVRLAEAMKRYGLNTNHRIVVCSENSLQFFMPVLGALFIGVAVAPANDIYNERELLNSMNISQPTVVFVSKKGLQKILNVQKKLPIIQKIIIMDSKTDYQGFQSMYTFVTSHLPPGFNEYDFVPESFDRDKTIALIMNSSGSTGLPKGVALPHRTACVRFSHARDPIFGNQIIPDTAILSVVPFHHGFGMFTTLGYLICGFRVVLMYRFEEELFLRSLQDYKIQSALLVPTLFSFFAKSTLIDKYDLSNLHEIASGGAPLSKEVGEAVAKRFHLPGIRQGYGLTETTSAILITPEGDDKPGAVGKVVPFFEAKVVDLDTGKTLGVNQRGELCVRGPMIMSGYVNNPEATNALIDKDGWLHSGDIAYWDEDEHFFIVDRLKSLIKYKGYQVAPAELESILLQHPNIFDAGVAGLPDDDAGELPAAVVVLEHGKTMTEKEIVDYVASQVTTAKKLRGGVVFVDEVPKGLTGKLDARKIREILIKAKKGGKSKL

Molecular target: Luciferin 4-monooxygenase (Photinus pyralis) (UniProt P08659)
Assay: firefly luciferase inhibitors, HSP90 counter-screen, confirmation, artefact control for HSP90 inhibitor project, biochemical, luminescence, triplicate (AID 1847);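 also: 0% = DMSO with luciferase and 100% = wells lacking luciferase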
Conditions: purified native firefly luciferase, at 5.9 µM, hits give high values

Question: How did the inhibition turn out when `O=C(O)c1ccccc1[As](=O)(O)O` was run?
Answer: inactive: -2.8%

Question: With `O=P(Nc1nccs1)(c1ccccc1)c1nc2ccccc2s1` (configuration not stated) as the molecule, how does the inhibition read?
Answer: inactive: -2.47%
